Reference: patent US8937096B2, “Use of benzo-fused heterocyle sulfamide derivatives for the treatment of mania and bipolar disorder” (priority 2005, dated 2015)

Test system: hippocampal kindled seizures
Experiment: Rat Hippocampal Kindling Test (Interruption of Kindled State)
Type: in vivo
Details: ip, decrease in seizure score at 45 min, peak activity at 165 min, read-out: ED50 (anticonvulsant activity)
Description: In the present rapid hippocampal kindling model adult male Sprague-Dawley rats (300-400 g) were surgically implanted with bipolar electrodes placed in the hippocampus. The rats were kindled by repetitive electrical stimulation (50 Hz, 10 s train of 1 ms, biphasic 200 μA pulses every 30 min for 6 h every other day for a total of 60 stimulations) resulting in stage 5 bilateral motor seizures. One week later, the rats received 2-3 supra-threshold stimulations delivered every 30 min before treatment with test compound, to ensure stability of the behavioral seizure stage and after-discharge duration. Fifteen minutes after the last stimulation, a single dose of vehicle or test compound was administered i.p. (intraperitoneally). After 15 min, each rat was then stimulated every 30 min for 3 to 4 h. After each stimulation, individual seizure scores and after-discharge durations were recorded. The group mean±SEM were calculated for each parameter. Eight rats per dose and a minimum of four doses were used to establish an ED50 value. Efficacy was measured as the ability of a compound to modify the seizure score (severity of spread) and after-discharge duration (ADD; excitability) of the generalized seizures. […]

SMILES: NS(=O)(=O)NC[C@H]1COc2cc(Cl)ccc2O1 [Compound #8, (2S)-(−)-N-(6-Chloro-2,3-dihydro-benzo[1,4]dioxin-2-ylmethyl)-sulfamide]
- ED50: 68.5 ± 1.3 mg/kg
